{"source": "PubChem BioAssay AID651644", "about": "(National Center for Advancing Translational Sciences (NCATS), 2012)", "note": "Only a part is listed here, and it is no random draw. Calls of active or inactive are those of the source. Calls follow the shape of the dose curve; as a rule, active = well fitted falling curve with a large enough effect; inconclusive = small, poorly fitted or top-dose-only effect; inactive = no such curve, though single readings can be large or run the other way. % is scaled to controls: 0 for no effect and ±100 for the full control effect.", "data": [{"test": "qHTS Assay for Inhibitors of the HIV-1 protein Vpr; also: nearly all actives have a fitted effect of over 50% in size", "conditions": "S. pombe RE007 Vpr strain, BacTiter-Glo ATP luminescence, 24 h; at 92.2 µM (top of the series)", "values": [{"smiles": "CCC(=O)N(c1ccccc1)C1(COC)CCN(CCc2cccs2)CC1", "activity change, negative = less growth": "inactive: 0.863%"}, {"smiles": "CCC(=O)N(c1ccccc1)C1(COC)CCN(CCn2nnn(CC)c2=O)CC1", "activity change, negative = less growth": "inactive: -4.45%"}]}]}
